# Test results: IntAct's records for PubMed 12878161
# B1: Tripartite motif-containing protein 5 (Homo sapiens), Q9C035-4 (parent)
# chain: MASGILVNVKEEVTCPICLELLTQPLSLDCGHSFCQACLTANHKKSMLDKGESSCPVCRISYQPENIRPNRHVANIVEKLREVKLSPEGQKVDHCARHGEKLLLFCQEDGKVICWLCERSQEHRGHHTFLTEEVAREYQVKLQAALEMLRQKQQEAEELEADIREEKASWKTQIQYDKTNVLADFEQLRDILDWEESNELQNLEKEEEDILKSLTNSETEMVQQTQSLRELISDLEHRLQGSVMELLQGVDGVIKRTENVTLKKPETFPKNQRRVFRAPDLKGMLEVFRELTDVRRYWGWSAMARSRFTATSTSQIQAILLPQPPK
# Variants of: B1
# Details: with ub2d2_human UBE2D2, P62837
row,effect of a mutation on the interaction,Variant
1,decreasing interaction,C15A;C18A
